Read-outs that look alike come from different tables or passages of the source.
What was measured:
[1] = rabbit, 20 MBq i.v.
[2] = Balb/C mice, 45 min postinjection
[3] = rabbit, 45 min postinjection
[4] = human serum, 37°C, after 3 h
[5] = Biodistribution study; type: in vivo, BALB/c mice; conditions: mice, 3.7 MBq i.v., 45 min postinjection
Procedure: 3.7 MBq of labeled [^68Ga]-CDTMP complex was injected intravenously into the tail vein of each animal. The animals were dissected at particular time intervals up to 2 h postinjection, and desired organs were collected for [^68Ga]-CDTMP and for [^188Re]-CDTMP, the biodistribution was carried out up to 96 h at specific time intervals. The required organs were removed, made free from adhering tissue, and washed with normal saline. The radioactivity in each organ was counted using gamma counter. The data are expressed as the percent-administered dose per gram of the organ.

[6] = MicroPET semiquantitative analysis

[^68Ga]-trans-1,2-cyclohexyldinitrilo tetramethylene phosphonic acid [[^68Ga]-CDTMP]
activity remained in the blood ([1]; at 4 h): approximately 18% | biological half-life t1/2 (fast) ([1]; blood): 12 min | bone uptake in MicroPET image [2]: High bone uptake as compared to contralateral tissue | bone to kidney ratio [2, 6]: 7.976 ± 0.78 | bone to muscle ratio [2, 6]: 24.146 ± 0.98 | bone to muscle ratio ([3]; PET volume of interest analysis): 21.258 ± 1.3 | bone uptake in PET image [3]: High bone uptake as compared to contralateral tissue | remaining intact in serum [4]: 97.5% | maximum bone uptake [5]: 6.12 ± 1.22 %ID/g
